Experimental data published in patent publication US20250213574A1, “THERAPEUTIC COMBINATIONS COMPRISING UBIQUITIN- SPECIFIC-PROCESSING PROTEASE 1 (USP1) INHIBITORS AND CHEMOTHERAPY AGENTS” (KSQ Therapeutics, Inc., priority 2022, published 2025).

What was measured:
[1] = test system: SUM149PT; experiment: Colony formation (CFU) assay, SUM149PT; type: cell-based; details: breast, chemotherapy agent in combination with 300 nM Compound 1
Method: (§1) In vitro experiments were conducted using the colony formation unit (CFU) assay on various cell lines. The CFU assay involved first establishing what cell plating density enabled the development of clearly interspersed colonies on a six-well plate when left to grow for around 14 days. […] At or around day 14 when clearly interspersed colonies were visible in the DMSO-treated wells, the cells were fixed and stained using 0.1% crystal violet in 10% ethanol for 20 minutes at room temperature. The plates were imaged then the amount of crystal violet stain in each well was quantified by extracting the crystal violet into 10% acetic acid and the absorbance measured at 565 nm.
(§2) For certain cell lines, multiple IC50 values were taken, and those are separated by commas. Synergy scores are in parentheticals.

[2] = test system: NCIH596; experiment: Colony formation (CFU) assay, NCIH596; type: cell-based; details: NCIH596, lung; chemotherapy agent in combination with 300 nM Compound 1
Method: as §1, §2

CO[C@@]12[C@H](COC(N)=O)C3=C(C(=O)C(C)=C(N)C3=O)N1C[C@@H]1N[C@@H]12 [Mito. C, mitomycin C]
synergy score [1]: (1) | synergy score [2]: (−1)
